The target of assay [1] is T1, aldose reductase (Bos taurus, UniProt P16116).
T1 construct: preparation of the enzyme from bovine lens; from tissue; host or cells: bovine lens
Kind of assay: in vitro inhibition of aldose reductase (enzyme from bovine lens, modified Hayman and Kinoshita procedure). Format: biochemical. As to conditions: 10^-6. How it is done: […] The aldose reductase inhibiting effects of the compounds of formula (I) were also tested by employing an in vitro testing procedure similar to that described by S. Hayman and J. H. Kinoshita, J. Biol. Chem., 240, 877 (1965).
In the present case the procedure of Hayman and Kinoshita was modified in that the final chromatography step was omitted in the preparation of the enzyme from bovine lens.

Assay [2] addresses T2, aldose reductase (Rattus norvegicus, UniProt P07943).
T2 construct: diminish the accumulation of dulcitol in the lenses, sciatic nerves and diaphragm of rats fed galactose; from tissue; host or cells: lens, sciatic nerve and diaphragm of living male Sprague-Dawley rats
Kind of assay: lowering of dulcitol accumulation in vivo in lens, sciatic nerve and diaphragm of galactosemic rats. As to conditions: for % lowering dulcitol accumulation in vivo, L: lens. Also noted: species or system rat (Sprague-Dawley). The source says:
Such experiments are exemplified hereinbelow after the listing of the following general comments pertaining to these experiments:
(a) Four or more groups of six male rats, 50-70 g, Sprague-Dawley strain, were used. The first group, the control group, was fed a mixture of laboratory chow (rodent Laboratory Chow, Purina) and glucose at 20% (w/w %) concentration. The untreated galactosemic group was fed a similar diet in which galactose is substituted for glucose. The third group was fed a diet prepared by mixing a given amount of the test compound with the galactose containing diet. The concentration of galactose in the diet of the treated groups was the same as that for the untreated galactosemic group.
(b) After four days, the animals were killed by decapitation. The eyeballs were removed and punctured with a razor blade; the freed lenses were rolled gently on filter paper and weighed. The sciatic nerves were dissected as completely as possible and weighed. Both tissues when frozen can be kept up to two weeks before being analyzed for dulcitol.
Only two minor reagent changes were made: (a) The rinsing mixture was an aqueous 5% (w/v) trichloroacetic acid solution and (b) the stock solution was prepared by dissolving 25 mg of dulcitol in 100 ml of an aqueous trichloroacetic acid solution. [N.B.: For each experiment the average value found in the tissue from rats fed the glucose diet was subtracted from the individual values found in the corresponding tissue in galactose-fed rats to obtain the amount of polyol accumulated.]
The figures under L, N and D represent the percentage decrease of dulcitol accumulation in the tissues of the lens, sciatic nerve and diaphragm, respectively, for treated rats as compared to untreated rats.

Turning to `O=C1CN(S(=O)(=O)c2cccc3c(I)cccc23)C(=O)N1` [Example 18, 1-[(5-iodo-1-naphthalenyl)sulfonyl]-2,4-imidazolidinedione], on aldose reductase [1], the inhibition at 1 µM is 89%.

Consider `COc1ccc2c(C(=S)N(C)CC(=O)O)cccc2c1C(F)(F)F` [tolrestat, N-[[6-methoxy-5-(trifluoromethyl)-1-naphthalenyl]thioxomethyl]-N-methylglycine, reference compound], for which the “% lowering dulcitol accumulation in vivo, D” value at aldose reductase [2] (diaphragm, 4 mg/kg/day in diet) is given as 80%. Also, the “% lowering dulcitol accumulation in vivo, L” value at aldose reductase [2] (4 mg/kg/day in diet) came to 0%; at aldose reductase [2] (11 mg/kg/day in diet), 14%.

These data come from patent US4743611A, “Naphthalenylsulfonylimidazolidinediones and their thioxo analogs useful as aldose reductase inhibitors” (American Home Products Corp., priority 1987, dated 1988).
